This passage reports activation results from PubChem BioAssay AID574 (The Scripps Research Institute Molecular Screening Center, 2007).

Protein sequences, listed by entry. Tags and fused reporters are not part of them.
UniProt P28566, whole entry: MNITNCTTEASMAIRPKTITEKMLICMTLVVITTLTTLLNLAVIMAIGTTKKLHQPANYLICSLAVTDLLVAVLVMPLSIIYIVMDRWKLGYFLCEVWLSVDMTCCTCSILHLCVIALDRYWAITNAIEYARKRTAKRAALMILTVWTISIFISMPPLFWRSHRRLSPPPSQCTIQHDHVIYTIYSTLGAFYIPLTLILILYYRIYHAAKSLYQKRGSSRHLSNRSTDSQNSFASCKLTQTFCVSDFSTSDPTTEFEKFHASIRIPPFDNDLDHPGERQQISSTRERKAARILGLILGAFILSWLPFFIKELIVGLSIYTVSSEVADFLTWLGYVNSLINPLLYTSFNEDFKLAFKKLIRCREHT

The entries are a selection whose mix differs from that of the whole data set. Some results for these compounds are left out of this collection, so the calls shown say nothing about other tests. The source made the active and inactive calls.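 The calls were made as follows: active = activation above a set limit, the screen-wide mean activation plus 3 SD (cut at about 8.5% in these data); inactive = the rest.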

The target of the assay is 5-hydroxytryptamine receptor 1E (Homo sapiens) (UniProt P28566). Kind of assay: activation of human serotonin 5HT1E receptor – cell-based, HTS, primary screen (AID 574).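 Also: 100% = positive control agonist at 1 µM giving full maximal response.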 The settings on record: CHO 5-HT1E Ga15 NFAT-bla reporter, FRET; at 6 µM; active compounds read high; 0% DMSO wells, 100% control agonist wells.
With `O=C(OC1CN2CCC1CC2)C(CO)(c1ccccc1)c1ccccc1` (configuration not stated), the activation is inactive: -0.5%.
Consider `CN(C)c1cccc(C(=O)NCC2(N(C)C)CCCCC2)c1`, for which the activation was inactive: 0.7%.
